# AlphaSeq binding of Ab-14 light chain variants to a spike HR2 peptide

Reference: Li et al. 2023, doi:10.1038/s41467-023-39022-2. File: FLAb, binding data.

The target is the same throughout: PDVDLGDISGINAS, from the HR2 region of SARS-CoV-2 spike.

The variants keep the heavy chain, the linker and the frameworks of Ab-14 (scFv order VH, a 15-residue (Gly4Ser)3 linker, VL).
VH: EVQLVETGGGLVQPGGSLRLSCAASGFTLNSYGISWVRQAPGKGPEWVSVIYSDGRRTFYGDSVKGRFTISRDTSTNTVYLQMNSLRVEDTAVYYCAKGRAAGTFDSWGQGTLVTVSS
VL: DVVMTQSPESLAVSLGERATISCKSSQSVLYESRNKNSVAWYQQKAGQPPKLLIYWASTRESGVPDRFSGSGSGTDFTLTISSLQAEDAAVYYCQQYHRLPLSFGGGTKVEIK

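Phage display of a naive human antibody library on the peptide gave the parent. This is the validation round: designs drawn from the data on random variants, tested in the same kind of assay. Their group label is 14L_GP_Gen (GP: Gaussian process model; Gen: genetic algorithm; a sequence that several methods proposed may carry one label only). The assay is AlphaSeq: two haploid yeast populations carry antibody and antigen on their surface. Mating (16 h, 30 °C) was followed by selection of diploids and sequencing of their barcodes. Each replicate has its own calibration line, from reference interactions of the BCL2 family. Mating was done six times.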

Each variant is given by its three light chain CDRs, as the data file delimits them; those of the parent are KSSQSVLYESRNKNSVA, WASTRES, QQYHRLPLS. Values are log10 of the apparent Kd in nM; lower means stronger binding. Replicates are averaged; those with no signal do not enter the mean. "ND" means that the variant was in the library but no mating with the target was seen in that replicate; the authors take this as a sign of poor binding, and no number exists. Values of this round are not directly comparable with the first-round values of the same sequences. The parent sequence was in this pool as ten entries: three were never detected, three once, and four in most replicates, with averages from 0.34 to 2.37. Background: pairings of all light chain designs with three empty control strains gave a value in 4% of cases (median 2.64, 5th percentile 1.59). Values in that range, when seen in few replicates, are hard to tell from nonspecific mating. The control count says in how many pairings with the empty strains this scFv gave a signal, with their mean in brackets. In the paper, a design with two or fewer of six values counts as a poor binder.

CDR-L1	CDR-L2	CDR-L3	replicates, log10 nM	log10 Kd (nM), mean	empty controls
KLDQSQLYESRNKNSVA	NASTRLS	QQYHRLPLS	-0.03 -0.02 -0.19 -0.28 -0.17 0.02	-0.11	1 of 18 (3.74)
KLSQSWLYESRNKNNVA	QASTRES	QQYHRLPLS	0.05 -0.22 -0.21 -0.24 -0.28 -0.11	-0.17	1 of 18 (2.51)
KLSQSDLYESRNKNSVA	NASKRES	QQYHRLPLS	-0.09 -0.10 -0.09 -0.03 -0.30 0.19	-0.07	0 of 18
KVDQSELYESRNKNSVA	EASTRES	QQYHRLPLS	0.43 0.07 0.00 0.12 0.13 0.43	0.20	1 of 18 (1.96)
KLSQSVLYESRVKNSVA	NASTRLS	QQYHRLPLS	-0.32 -0.45 -0.60 -0.48 -0.79 -0.47	-0.52	0 of 18
KVMQSVPYESRNKNSVA	EASTRES	QQYHRLPLS	0.08 -0.05 -0.16 -0.25 -0.11 -0.02	-0.08	2 of 18 (2.27)
KLSQSVLYESRNKNSVA	QASTRED	QQYHRLPLS	-0.19 -0.13 -0.46 -0.69 -0.47 -0.32	-0.38	0 of 18
KLQQSVMYESRNKNSVA	EASTRES	QQYHRLPLS	-0.09 -0.22 -0.24 -0.20 -0.22 -0.04	-0.17	0 of 18
KISQSVEYEDRNKNSVA	NASQRES	QQYHRLPLS	0.19 0.15 -0.08 -0.27 -0.01 0.09	0.01	3 of 18 (2.91)
KLSQSELYESRNKNSVA	EASHRES	QQYHRLPLS	-0.36 -0.45 -0.54 -0.55 -0.56 -0.36	-0.47	0 of 18
KLYQSVLYESRNKNSVA	NASTRES	QQYHRLPLM	-0.24 -0.48 -0.43 -0.60 -0.44 -0.28	-0.41	0 of 18
KLPQSVLYESRNKNSVA	QASTREQ	QQYHRLPLS	0.12 -0.23 -0.21 -0.54 -0.33 -0.20	-0.23	0 of 18
KVSQSVLMESRNSNSVA	DASTRES	QQYHRLPLS	-0.14 -0.19 -0.29 -0.15 -0.10 -0.05	-0.15	0 of 18
KLSQSFLYESRNKNSVA	EASQRES	QQYHRLPLS	-0.15 -0.35 -0.12 -0.25 -0.52 -0.04	-0.24	0 of 18
KLPQSVDYESRNKNSVA	NASTRES	QQYHRLPLS	0.70 0.73 2.12 1.78 0.88 ND	1.24	0 of 18
KLSQSEGYESRNKNSVA	EASQRES	QQYHRLPLS	0.00 -0.27 -0.16 -0.45 -0.53 -0.13	-0.25	2 of 18 (1.75)
KLSQSVLYESRNKNSVA	NASKRMS	QQYHRLPLS	0.08 -0.06 -0.02 -0.03 -0.09 0.15	0.01	1 of 18 (2.60)
YVSQSQLYESRNKNSVA	NASTRES	QQYHRLPLS	0.22 0.08 0.00 -0.37 0.07 0.46	0.08	0 of 18
KLSQSVLYESRNKNSVA	NASTREV	QDYHRLPLS	-0.40 -0.34 0.46 -0.92 -0.26 -0.37	-0.30	0 of 18
KLPQSQLYESRNKNSVA	QASQRES	QQYHRLPLS	0.15 -0.06 -0.42 -0.54 -0.19 -0.09	-0.19	1 of 18 (2.57)
KLSFSMLYESRNKNSVA	EASTRES	QQYHRLPLS	0.13 0.08 -0.14 -0.44 -0.13 0.01	-0.08	2 of 18 (2.76)
KLEQSHLYESRNKNSVA	NASTRES	QQYHRLPLS	0.45 0.14 0.20 0.11 0.43 0.16	0.25	0 of 18
KSSQSVLYESGNKNSVA	EASTRES	QQYHRLPLS	0.49 0.08 0.06 0.09 0.12 0.74	0.26	2 of 18 (2.47)
KLSQSVEYESRNKNNVA	DASTRES	QQYHRLPLS	-0.50 -0.59 -0.68 -0.90 -0.73 -0.74	-0.69	0 of 18
KLSQSVHYESRNKNNVA	NASTRES	QQYHRLPLS	0.14 0.11 0.13 -0.06 0.16 0.38	0.14	0 of 18
KLKQSWLYESRNKNSVA	NASQRES	QQYHRLPLS	-0.18 -0.19 -0.32 -0.32 -0.35 -0.30	-0.28	2 of 18 (3.09)
KLMQSVPYESRNKNSVA	NASQRES	QQYHRLPLS	0.04 0.03 -0.11 -0.20 0.00 0.10	-0.02	1 of 18 (3.02)
KVAQSVLYESRNKNSVA	EASTRES	QQYHRLPLS	0.12 -0.37 -0.38 -0.37 -0.54 -0.46	-0.33	1 of 18 (2.40)
KISQSVLYESRNKNSVA	EASTREV	QQYHRLPLS	0.36 0.47 0.55 0.79 0.21 -0.09	0.38	2 of 18 (2.47)
KSPQSELYESRNKNSVA	NASQRES	QQYHRLPLS	0.22 0.32 -0.08 0.29 0.07 0.28	0.18	0 of 18
KLQQSVGYESRNKNSVA	NASTRLS	QQYHRLPLS	0.13 0.43 0.27 0.40 0.02 0.75	0.33	0 of 18
KVSQSELYESRNKNSVA	EASLRES	QQYHRLPLS	0.11 0.42 0.21 0.82 0.48 0.67	0.45	0 of 18
KFSQSELYEDRNKNSVA	NASQRES	QQYHRLPLS	-0.04 -0.23 0.71 0.04 -0.33 0.28	0.07	0 of 18
KLSQSKLYESRNKNSVA	NASQRES	QQYHRLPLS	0.92 0.58 0.39 0.41 0.97 0.87	0.69	0 of 18
KLSQSQLYESRMKNSVA	NASTREV	QQYHRLPLS	0.00 0.00 0.11 -0.12 -0.32 0.10	-0.04	1 of 18 (2.63)
KLEQSDLYESRNKNSVA	NASTRMS	QQYHRLPLS	0.15 -0.22 -0.17 -0.35 -0.30 -0.21	-0.18	2 of 18 (2.49)
KLSQSWLYESRNKNNVA	GASTRES	QQYHRLPLS	0.10 0.05 -0.18 -0.07 0.03 -0.11	-0.03	1 of 18 (2.68)
KLSQSFLYESRNKNSVA	NASQRES	QQYHRLPLS	-0.32 -0.42 -0.55 -0.62 -0.24 -0.46	-0.43	0 of 18
KLSQSDLYESRNKNSVA	GASTREV	QQYHRLPLS	0.63 0.12 0.42 -0.10 0.47 0.18	0.29	1 of 18 (1.14)
KVSQSELYESRNKNSVA	NASQRES	QQYHRLPLS	-0.05 -0.07 -0.25 -0.17 -0.37 -0.03	-0.16	0 of 18
KVSPSVLYESRNKNSVA	DASTRES	QQYHRLPLS	-0.23 -0.48 -0.46 -0.71 -0.53 -0.42	-0.47	3 of 18 (2.81)
KLQQSVLYEERNKNSVA	NASQRES	QQYHRLPLS	0.16 0.02 -0.16 -0.15 -0.15 -0.04	-0.05	1 of 18 (3.37)
KVSGSVLYESRNKNSVA	NASTRES	QQYHRLPLS	-0.14 -0.33 -0.23 -0.26 -0.14 -0.05	-0.19	0 of 18
KVSQSMLYESRNKNNVA	EASTRES	QQYHRLPLS	-0.22 -0.43 -0.44 -0.48 -0.53 -0.08	-0.36	1 of 18 (3.23)
KLSQSVLYESRAKNSVA	NASQRES	QQYHRLPLS	1.03 0.52 0.22 0.56 0.44 0.97	0.62	0 of 18